Results reported in ChEMBL document CHEMBL6083268, “Discovery of BAY 2413555, First Selective Positive Allosteric Modulator of the M2 Receptor to Restore Cardiac Autonomic Balance” (J Med Chem, 2024).
Calls of active or inactive are those of the source. The calls are words filed in the database; no cut-off is given here.

Sequences of proteins named here, by UniProt entry; tags and fusion partners are left off.
UniProt P10980, whole entry: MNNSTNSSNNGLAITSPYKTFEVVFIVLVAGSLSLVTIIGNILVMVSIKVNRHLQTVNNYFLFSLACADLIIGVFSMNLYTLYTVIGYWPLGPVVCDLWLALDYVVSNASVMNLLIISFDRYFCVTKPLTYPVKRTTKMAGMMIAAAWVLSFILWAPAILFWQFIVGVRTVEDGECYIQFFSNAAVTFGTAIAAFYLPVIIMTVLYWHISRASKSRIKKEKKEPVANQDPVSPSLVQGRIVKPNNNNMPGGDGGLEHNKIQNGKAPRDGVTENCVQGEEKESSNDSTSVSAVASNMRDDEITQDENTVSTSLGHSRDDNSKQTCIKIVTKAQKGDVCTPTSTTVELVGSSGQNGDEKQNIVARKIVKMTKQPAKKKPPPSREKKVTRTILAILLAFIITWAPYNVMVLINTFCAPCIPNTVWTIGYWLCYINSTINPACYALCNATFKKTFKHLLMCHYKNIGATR
UniProt P20309, whole entry, looked up: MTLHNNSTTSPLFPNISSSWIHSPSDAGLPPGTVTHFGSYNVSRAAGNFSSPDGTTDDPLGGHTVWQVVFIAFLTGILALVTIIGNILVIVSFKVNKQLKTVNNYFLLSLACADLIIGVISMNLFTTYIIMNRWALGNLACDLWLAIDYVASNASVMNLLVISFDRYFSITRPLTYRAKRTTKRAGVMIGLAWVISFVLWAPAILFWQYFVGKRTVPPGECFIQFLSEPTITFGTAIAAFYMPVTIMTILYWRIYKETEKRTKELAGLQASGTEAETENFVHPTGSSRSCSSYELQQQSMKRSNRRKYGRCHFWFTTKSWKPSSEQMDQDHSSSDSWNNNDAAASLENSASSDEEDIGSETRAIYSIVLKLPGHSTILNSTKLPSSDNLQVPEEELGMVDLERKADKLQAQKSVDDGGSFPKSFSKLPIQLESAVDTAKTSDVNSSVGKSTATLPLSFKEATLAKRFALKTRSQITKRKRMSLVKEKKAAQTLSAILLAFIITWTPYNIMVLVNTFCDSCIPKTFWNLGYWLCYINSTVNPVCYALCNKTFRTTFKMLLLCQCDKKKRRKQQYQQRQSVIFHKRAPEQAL
UniProt P08912, whole entry: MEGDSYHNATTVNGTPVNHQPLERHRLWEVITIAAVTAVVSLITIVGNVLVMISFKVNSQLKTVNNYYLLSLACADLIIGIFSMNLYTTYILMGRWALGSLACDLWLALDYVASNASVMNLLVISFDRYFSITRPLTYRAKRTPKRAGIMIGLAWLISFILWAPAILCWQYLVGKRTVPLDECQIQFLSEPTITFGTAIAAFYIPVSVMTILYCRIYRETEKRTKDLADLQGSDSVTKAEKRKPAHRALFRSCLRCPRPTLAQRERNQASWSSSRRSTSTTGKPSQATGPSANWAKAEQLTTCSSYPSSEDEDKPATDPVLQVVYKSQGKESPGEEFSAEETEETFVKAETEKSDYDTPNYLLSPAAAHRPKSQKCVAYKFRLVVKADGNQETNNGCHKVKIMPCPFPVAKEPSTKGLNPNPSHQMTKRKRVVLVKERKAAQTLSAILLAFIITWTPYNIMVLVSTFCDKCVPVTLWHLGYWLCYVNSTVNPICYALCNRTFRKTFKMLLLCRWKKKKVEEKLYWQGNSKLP

Tests used:
[1] = target: Muscarinic acetylcholine receptor M2 (Rattus norvegicus) (UniProt P10980); test: Ex vivo positive allosteric modulator activity at M2 muscarinic acetycholine receptor in Wistar rat assessed as leftward shift in carbachol dose-response curve for heart rate at 300 nM infused for 20 mins into aortic cannula; assay type: functional
[2] = target: Muscarinic acetylcholine receptor M2 (Rattus norvegicus) (UniProt P10980); test: Ex vivo positive allosteric modulator activity at M2 muscarinic acetycholine receptor in Wistar rat assessed as reduction of carbachol-induced heart rate infused for 20 mins into aortic cannula; assay type: functional
[3] = target: Muscarinic acetylcholine receptor M2 (Rattus norvegicus) (UniProt P10980); test: Ex vivo agonist activity at M2 muscarinic acetylcholine receptor in Wistar rat assessed as effect on heart function infused for 20 mins into aortic cannula; assay type: functional
[4] = target: Muscarinic acetylcholine receptor M3 (Homo sapiens) (UniProt P20309); test: Agonist activity at human recombinant M3 muscarinic acetylcholine receptor assessed as calcium mobilization at 10 uM measured for 180 secs by FLIPR analysis relative to control; assay type: functional; details: time 180.0 sec
[5] = target: Muscarinic acetylcholine receptor M2 (Rattus norvegicus) (UniProt P10980); test: Ex vivo antagonist activity at M2 muscarinic acetylcholine receptor in Wistar rat assessed as effect on heart function infused for 20 mins into aortic cannula; assay type: functional
[6] = target: Muscarinic acetylcholine receptor M2 (Rattus norvegicus) (UniProt P10980); test: Ex vivo positive allosteric modulator activity at M2 muscarinic acetycholine receptor in Wistar rat assessed as reduction of carbachol-induced heart rate infused for 20 mins into aortic cannula in presence of M2 muscarinic acetylcholine receptor antagonist, atropine; assay type: functional
[7] = target: Muscarinic acetylcholine receptor M5 (Homo sapiens) (UniProt P08912); test: Agonist activity at M5 muscarinic acetylcholine receptor (unknown origin) assessed as calcium mobilization at 10 uM measured for 180 secs by FLIPR analysis relative to control; assay type: functional; details: time 180.0 sec
Rattus norvegicus [8] = test: Restoration of cardiac autonomic balance in free-moving conscious spontaneously hypertensive rat assessed as reduction of heart rate at 10 mg/kg, po administered via gavage by radiotelemetry; assay type: functional, organism-based
Rattus norvegicus [9] = test: Restoration of cardiac autonomic balance in free-moving conscious spontaneously hypertensive rat assessed as reduction of mean arterial blood pressure at 10 mg/kg, po administered via gavage by radiotelemetry; assay type: functional, organism-based

Activity [3]	Activity [4]	Activity [5]	Activity [7]	SMILES	Activity [1]	Activity [2]	Activity [6]	Activity (Rattus norvegicus [8])	Activity (Rattus norvegicus [9])
inactive	0.4%	inactive	1.6%	C[C@H](NC(=O)c1cn(-c2c(F)cc(F)cc2F)c2nc(N3C[C@@H](O)[C@H](O)C3)c(F)cc2c1=O)C(F)(F)C(F)(F)F	Active	Dose-dependent-effect	inactive		
				CC(C)NCC(O)COc1ccc(CC(N)=O)cc1 (centres undefined)				Active	Active
